These are literature values, as cited in patent US8883847B2, “Compositions and methods of treatment using modulators of motoneuron diseases” (KineMed, Inc., priority 2006, dated 2014).

The series relates to ALS SOD1 G93A mouse. The settings on record: SOD1-G93A TGN mouse; cited from earlier work.

Turning to `Nc1nc2ccc(OC(F)(F)F)cc2s1` [Riluzole], the “delay of disease onset and mortality” value is reported as 20 to 30 days.
